Data as given in patent publication US11529354B2, “Methods and compositions for the treatment of tuberculosis” (PRESIDENT AND FELLOWS OF HARVARD COLLEGE, priority 2017, dated 2022).

Test system: BCG
Type: cell-based

With `Cn1ccc(=Nc2ccc(NC(=O)c3ccc(N=c4ccn(C)c5ccc([N+](=O)[O-])cc45)cc3)cc2)cc1` [NSC 260594, 4-[(1-methyl-6-nitroquinolin-4-ylidene)amino]-N-[4-[(1-methylpyridin-4-ylidene)amino]phenyl]benzamide] as the compound, how does the “CFU in combination with clinical drugs” value read?
The value was “CFU decreased”.
